From patent publication US20250382287A1, “PHARMACEUTICALLY ACCEPTABLE SALT AND CRYSTAL FORM OF NITROGEN-CONTAINING BRIDGE HETEROCYCLIC DERIVATIVE, AND METHOD FOR PREPARING SAME” (JIANGSU HENGRUI PHARMACEUTICALS CO., LTD., priority 2022, published 2025)

Amino acid sequences for entries named in this document (tags omitted). Residues count along the entry.
UniProt P00751, 260-764 limits assumed: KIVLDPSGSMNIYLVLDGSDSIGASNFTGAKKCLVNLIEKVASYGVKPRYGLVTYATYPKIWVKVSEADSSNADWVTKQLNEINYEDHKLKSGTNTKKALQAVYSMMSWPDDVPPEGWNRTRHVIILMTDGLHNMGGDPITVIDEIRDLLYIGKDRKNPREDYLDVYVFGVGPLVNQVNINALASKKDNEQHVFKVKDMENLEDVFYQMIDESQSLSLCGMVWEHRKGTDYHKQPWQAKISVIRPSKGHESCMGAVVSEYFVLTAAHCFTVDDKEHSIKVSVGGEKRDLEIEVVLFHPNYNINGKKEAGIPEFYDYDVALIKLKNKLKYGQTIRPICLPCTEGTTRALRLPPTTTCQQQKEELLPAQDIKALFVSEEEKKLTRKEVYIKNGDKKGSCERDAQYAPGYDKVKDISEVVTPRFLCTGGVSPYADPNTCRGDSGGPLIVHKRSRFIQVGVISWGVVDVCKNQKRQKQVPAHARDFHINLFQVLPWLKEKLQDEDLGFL

Biological target: Factor B enzyme (recombinant human complement factor B protein, as CVF:Bb complex) (Homo sapiens, UniProt P00751)
Assay: biochemical

CCO[C@H]1C[C@H]2CC[C@@](c3ccc(C(=O)O)cc3)(C1)N2Cc1c(OC)cc(C)c2[nH]ccc12 [compound I, 4-((1S,3S,5R)-3-ethoxy-8-((5-methoxy-7-methyl-1H-indol-4-yl)methyl)-8-azabicyclo[3.2.1]octan-1-yl)benzoic acid]
IC50: 1.3 nM
